Measurements as given in the NIST ThermoML archive (doi:10.1021/je030165y).
Numbers after ± are expanded uncertainties.

Experiment: refractive index (Na D-line) (dimensionless)
Conditions: 298.15 K; 101.33 kPa; Liquid; Standard Abbe refractometry

refractive index: 1.397 ± 0.0008
SMILES: CCCCOCCCC [dibutyl ether]
